The values that follow are results of earlier work, collected in US7288565B2, “Azasugar compound” (Mitsubishi Chemical Corporation, priority 2001, dated 2007).

Structures are written as SMILES.

The target in this data set is T1, α-mannosidase (α-Man-ase; EC 3.2.1.24) (Canavalia ensiformis, UniProt C0HJB3).
T1 construct: Jack Bean-derived α-mannosidase (α-Man-ase; α-D-mannoside mannohydrolase; EC 3.2.1.24) (Sigma); purchased Sigma; host or cells: jack bean (natural source)
T1 sequence (C0HJB3 1-562 limits assumed): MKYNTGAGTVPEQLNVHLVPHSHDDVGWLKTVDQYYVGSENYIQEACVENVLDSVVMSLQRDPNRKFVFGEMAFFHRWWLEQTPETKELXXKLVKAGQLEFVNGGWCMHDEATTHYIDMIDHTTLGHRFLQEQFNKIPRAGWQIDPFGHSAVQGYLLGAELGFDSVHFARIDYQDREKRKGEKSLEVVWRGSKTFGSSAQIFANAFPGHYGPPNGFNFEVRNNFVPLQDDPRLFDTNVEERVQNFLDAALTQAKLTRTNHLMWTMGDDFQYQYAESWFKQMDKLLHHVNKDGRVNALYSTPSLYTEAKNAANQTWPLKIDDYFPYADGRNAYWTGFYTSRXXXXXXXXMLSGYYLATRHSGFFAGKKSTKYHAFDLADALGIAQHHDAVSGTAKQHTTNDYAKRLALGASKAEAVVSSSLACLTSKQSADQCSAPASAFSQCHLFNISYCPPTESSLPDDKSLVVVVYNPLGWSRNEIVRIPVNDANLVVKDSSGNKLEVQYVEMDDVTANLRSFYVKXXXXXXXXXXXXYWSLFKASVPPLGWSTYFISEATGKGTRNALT
T1 sequence (C0HJB3 563-981 partner limits assumed): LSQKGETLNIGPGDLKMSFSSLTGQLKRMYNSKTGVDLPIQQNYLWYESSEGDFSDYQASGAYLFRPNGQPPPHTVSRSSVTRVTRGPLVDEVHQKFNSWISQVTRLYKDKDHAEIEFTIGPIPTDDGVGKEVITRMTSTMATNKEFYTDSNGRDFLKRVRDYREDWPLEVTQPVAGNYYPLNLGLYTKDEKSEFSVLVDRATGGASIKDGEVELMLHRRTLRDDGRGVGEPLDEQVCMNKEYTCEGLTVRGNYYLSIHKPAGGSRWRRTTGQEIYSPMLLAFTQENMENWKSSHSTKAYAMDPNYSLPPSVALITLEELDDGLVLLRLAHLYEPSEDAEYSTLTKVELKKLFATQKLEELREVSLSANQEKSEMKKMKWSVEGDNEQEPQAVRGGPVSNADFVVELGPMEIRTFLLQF
As to conditions: Saotome et al. 2000.

As to `OC[C@H]1NC[C@@H](O)[C@@H](O)[C@@H]1O` [deoxymannojirimycin], the Ki was 43 µM.
